Among the data in ChEMBL document CHEMBL3272097, “Intramolecular hydrogen bonding and conformational studies of bridged thebaine and oripavine opiate narcotic agonists and antagonists” (1979) are fold change (FC) values, retold here.

Assay [1] has as its target T1, Opioid receptors; mu/kappa/delta (Homo sapiens) (UniProt P41145+P41143+P35372). Put plainly: Displacement of [3H]naloxone from opioid receptor (unknown origin) relative to nalorphine.
Assay [2] has as its target T1, Opioid receptors; mu/kappa/delta (Homo sapiens). Put plainly: Displacement of [3H]naloxone from opioid receptor (unknown origin) relative to morphine.

With `CCC[C@@](C)(O)C1C[C@@]23C=C[C@]1(OC)[C@@H]1Oc4c(O)ccc5c4[C@@]12CCN(CC1CC1)[C@@H]3C5` (stereo partly drawn), the fold change (FC) in assay [1] is 0.3; in assay [2] it was 1000.
With `C=CCN1CC[C@]23c4c5ccc(O)c4O[C@H]2[C@@]2(OC)C=C[C@@]3(CC2[C@](C)(O)CCC)[C@H]1C5` (stereo partly drawn), the fold change (FC) in assay [2] was 60.
